From patent US9440982B2 (Eolas Therapeutics, Inc., priority 2012, dated 2016)

Chains of the proteins cited; added tags and fusions are not shown.
UniProt O43614, whole entry: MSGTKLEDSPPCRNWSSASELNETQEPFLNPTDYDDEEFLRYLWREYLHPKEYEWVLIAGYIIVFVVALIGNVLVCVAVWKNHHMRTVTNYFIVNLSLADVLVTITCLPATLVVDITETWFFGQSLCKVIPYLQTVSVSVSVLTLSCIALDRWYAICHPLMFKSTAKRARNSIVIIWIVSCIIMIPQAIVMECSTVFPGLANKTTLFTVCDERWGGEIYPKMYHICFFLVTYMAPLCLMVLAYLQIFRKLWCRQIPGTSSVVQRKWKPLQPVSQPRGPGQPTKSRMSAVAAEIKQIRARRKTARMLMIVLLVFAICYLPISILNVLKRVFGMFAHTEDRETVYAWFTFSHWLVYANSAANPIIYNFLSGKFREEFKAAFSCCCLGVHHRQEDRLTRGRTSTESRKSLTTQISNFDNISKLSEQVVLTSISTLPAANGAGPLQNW

Molecular target: T1, OX2 (Homo sapiens, UniProt O43614)
T1 construct: expressed in transfected cells; host or cells: CHO (CHO-OX2, kept under selection antibiotic)
Experiment: Orexin receptor cell-based functional assay, [Ca2+]i by FLIPR, CHO-OX2 cells
Conditions: CHO-OX2 cells, [Ca2+]i by FLIPR, antagonist dose-range 0.1 nM-10 μM, EC90 of OXA; read-out: OX2

IC50 | Compound
> 4000 nM | Cc1ccc(-n2ccc(C)n2)c(C(=O)N2CCC[C@@H](C)[C@H]2CNc2nc3cc(Cl)ccc3o2)c1 [Example A115, ((2S,3R)-2-(((5-Chlorobenzo[d]oxazol-2-yl)amino)methyl)-3-methylpiperidin-1-yl)(5-methyl-2-(3-methyl-1H-pyrazol-1-yl)phenyl)methanone]
> 5000 nM | Cc1ccc(-n2cccn2)c(C(=O)N2CCC[C@@H](C)[C@H]2CNc2ccc(Cl)cn2)n1 [Example A168, ((2S,3R)-2-(((5-Chloropyridin-2-yl)amino)methyl)-3-methylpiperidin-1-yl)(6-methyl-3-(1H-pyrazol-1-yl)pyridin-2-yl)methanone]
> 5000 nM | Cc1ccc(-c2ccc(F)cn2)c(C(=O)N2CCC[C@@H](C)[C@H]2CNc2ccc(Cl)cn2)c1 [Example A159, ((2S,3R)-2-(((5-Chloropyridin-2-yl)amino)methyl)-3-methylpiperidin-1-yl)(2-(5-fluoropyridin-2-yl)-5-methylphenyl)methanone]
160 nM | Cc1ccc(-n2nccn2)c(C(=O)N2CCC[C@@H](C)[C@H]2CNc2nc3ccccc3o2)c1 [Example A180, ((2S,3R)-2-((Benzo[d]oxazol-2-ylamino)methyl)-3-methylpiperidin-1-yl)(5-methyl-2-(2H-1,2,3-triazol-2-yl)phenyl)methanone]
> 4000 nM | Cc1nc(C(=O)N2CCC[C@@H](C)[C@H]2CNc2nc3cc(Cl)ccc3o2)c(-c2ccc(F)cc2)s1 [Example A84, ((2S,3R)-2-(((5-Chlorobenzo[d]oxazol-2-yl)amino)methyl)-3-methylpiperidin-1-yl)(5-(4-fluorophenyl)-2-methylthiazol-4-yl)methanone]
2500 nM | Cc1ccc(-n2nccn2)c(C(=O)N2CCC[C@@H](C)[C@H]2CNc2ccc(C(F)(F)F)cn2)c1F [Example A318, (2-Fluoro-3-methyl-6-(2H-1,2,3-triazol-2-yl)phenyl)((2S,3R)-3-methyl-2-(((5-(trifluoromethyl)pyridin-2-yl)amino)methyl)piperidin-1-yl)methanone]
> 5000 nM | C[C@@H]1CCCN(C(=O)c2c(F)cccc2-n2nccn2)[C@@H]1CNc1ncc(C(F)(F)F)cn1 [Example A259, (2-Fluoro-6-(2H-1,2,3-triazol-2-yl)phenyl)((2S,3R)-3-methyl-2-(((5-(trifluoromethyl)pyrimidin-2-yl)amino)methyl)piperidin-1-yl)methanone]
410 nM | Cc1ccc(-c2nccs2)c(C(=O)N2CCC[C@@H](C)[C@H]2CNc2ccc(C(F)(F)F)cn2)c1 [Example A24, ((2S,3R)-3-Methyl-2-(((5-(trifluoromethyl)pyridin-2-yl)amino)methyl)piperidin-1-yl)(5-methyl-2-(thiazol-2-yl)phenyl)methanone]
> 5000 nM | Cc1ccc(-n2cccn2)c(C(=O)N2CCC[C@@H](C)[C@H]2CNc2ccc(C#N)cn2)c1 [Example A155, 6-((((2S,3R)-3-Methyl-1-(5-methyl-2-(1H-pyrazol-1-yl)benzoyl)piperidin-2-yl)methyl)amino)nicotinonitrile]
2700 nM | C[C@@H]1CCCN(C(=O)c2ccccc2-n2nccn2)[C@@H]1CNc1ccc(C(F)(F)F)cn1 [Example A314, (2-(2H-1,2,3-Triazol-2-yl)phenyl)((2S,3R)-3-methyl-2-(((5-(trifluoromethyl)pyridin-2-yl)amino)methyl)piperidin-1-yl)methanone]
> 5000 nM | C[C@@H]1CCCN(C(=O)c2c(F)cccc2-c2ncccn2)[C@@H]1CNc1ncc(C(F)(F)F)cn1 [Example A240, (2-Fluoro-6-(pyrimidin-2-yl)phenyl)((2S,3R)-3-methyl-2-(((5-(trifluoromethyl)pyrimidin-2-yl)amino)methyl)piperidin-1-yl)methanone]
> 5000 nM | C[C@@H]1CCCN(C(=O)c2cccc(F)c2-n2nccn2)[C@@H]1CNc1ccc(C(F)(F)F)cn1 [Example A257, (3-Fluoro-2-(2H-1,2,3-triazol-2-yl)phenyl)((2S,3R)-3-methyl-2-(((5-(trifluoromethyl)pyridin-2-yl)amino)methyl)piperidin-1-yl)methanone]
> 5000 nM | Cc1ccc(-n2nccn2)c(C(=O)N2CCC[C@@H](C)[C@H]2CNc2ncccc2C)c1 [Example A99, ((2S,3R)-3-Methyl-2-(((3-methylpyridin-2-yl)amino)methyl)piperidin-1-yl)(5-methyl-2-(2H-1,2,3-triazol-2-yl)phenyl)methanone]
> 5000 nM | C[C@@H]1CCCN(C(=O)c2ccccc2-c2ncccn2)[C@@H]1CNc1ccc(C(F)(F)F)cn1 [Example A316, ((2S,3R)-3-Methyl-2-(((5-(trifluoromethyl)pyridin-2-yl)amino)methyl)piperidin-1-yl)(2-(pyrimidin-2-yl)phenyl)methanone]
> 4000 nM | COc1ccnc(-c2ccc(C)cc2C(=O)N2CCC[C@@H](C)[C@H]2CNc2ccc(C(F)(F)F)cn2)n1 [Example A21, (2-(4-Methoxypyrimidin-2-yl)-5-methylphenyl)((2S,3R)-3-methyl-2-(((5-(trifluoromethyl)pyridin-2-yl)amino)methyl)piperidin-1-yl)methanone]

Compound | IC50
Cc1ccc(-n2ncc(C)n2)c(C(=O)N2CCC[C@@H](C)[C@H]2CNc2nc3cc(Cl)ccc3o2)c1 [Example A116, ((2S,3R)-2-(((5-Chlorobenzo[d]oxazol-2-yl)amino)methyl)-3-methylpiperidin-1-yl)(5-methyl-2-(4-methyl-2H-1,2,3-triazol-2-yl)phenyl)methanone] | 1100 nM

Same assay, conditions: Table 2; CHO-OX2 cells, EC90 of OXA; read-out: IC50 Bioactivity OX2

IC50 | Compound
> 1000 nM | CO[C@@H]1CCCN(C(=O)c2nc(C)sc2-c2ccc(F)cc2)[C@@H]1CNc1ncc(Cl)cn1 (racemic) [Example 93, rac-cis-(2-(((5-Chloropyrimidin-2-yl)amino)methyl)-3-methoxypiperidin-1-yl)(5-(4-fluorophenyl)-2-methylthiazol-4-yl)methanone]
25 nM | COC1CCC(CNC(=O)c2cccc3cccnc23)N(C(=O)c2nc(C)sc2-c2cccc(F)c2)C1 (racemic) [Example 50, N-((1-(5-(3-Fluorophenyl)-2-methylthiazole-4-carbonyl)-5-methoxypiperidin-2-yl)methyl)quinoline-8-carboxamide]
> 10000 nM | Cc1cnc(NC[C@@H]2[C@H](C)CCCN2C(=O)c2nc(C)sc2-c2ccc(F)cc2)nc1 (racemic) [Example 83, rac-cis-(3-Methyl-2-(((5-methylpyrimidin-2-yl)amino)methyl)piperidin-1-yl)(5-(4-fluorophenyl)-2-methylthiazol-4-yl)methanone]
320 nM | CO[C@@H]1C[C@@H](CNC(=O)c2cccc3cccnc23)N(C(=O)c2ccccc2-c2ccccc2)C1 [Example 129, N-(((2S,4R)-1-([1,1′-biphenyl]-2-carbonyl)-4-methoxypyrrolidin-2-yl)methyl)quinoline-8-carboxamide]
1500 nM | Cc1nc(C(=O)N2CCC[C@@H](C)[C@H]2CNc2ccc(Cl)cn2)c(-c2ccc(F)cc2)s1 (racemic) [Example 18, rac-cis-(2-(((5-Chloropyridin-2-yl)amino)methyl)-3-methylpiperidin-1-yl)(5-(4-fluorophenyl)-2-methylthiazol-4-yl)methanone]
460 nM | Cc1nc(C(=O)N2CCC[C@@H](C(F)(F)F)[C@H]2CNc2ccc(C(F)(F)F)cn2)c(-c2ccccc2)s1 (racemic) [Example 14, rac-cis-(2-Methyl-5-phenylthiazol-4-yl)(3-(trifluoromethyl)-2-(((5-(trifluoromethyl)pyridin-2-yl)amino)methyl)piperidin-1-yl)methanone]
